Amino acid sequences for entries named in this document (tags omitted). Residues count along the entry.
UniProt P06276, 29-602 limits assumed: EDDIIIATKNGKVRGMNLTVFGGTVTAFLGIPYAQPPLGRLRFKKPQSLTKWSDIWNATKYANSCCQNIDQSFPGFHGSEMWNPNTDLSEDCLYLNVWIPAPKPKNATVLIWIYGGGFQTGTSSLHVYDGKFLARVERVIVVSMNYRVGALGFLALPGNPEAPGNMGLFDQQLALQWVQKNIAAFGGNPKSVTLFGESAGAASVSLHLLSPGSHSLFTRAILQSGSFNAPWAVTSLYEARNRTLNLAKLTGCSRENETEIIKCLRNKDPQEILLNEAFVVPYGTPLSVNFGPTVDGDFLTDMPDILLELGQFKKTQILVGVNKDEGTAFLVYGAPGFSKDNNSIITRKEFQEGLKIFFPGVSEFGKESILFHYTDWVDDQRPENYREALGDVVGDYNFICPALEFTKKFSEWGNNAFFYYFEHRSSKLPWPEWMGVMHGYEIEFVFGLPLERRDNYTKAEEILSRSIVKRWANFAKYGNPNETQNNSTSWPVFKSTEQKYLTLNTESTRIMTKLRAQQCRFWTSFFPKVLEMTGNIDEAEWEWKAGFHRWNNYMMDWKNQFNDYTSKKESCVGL

In PMC7822067, “Pyridinium-2-carbaldoximes with quinolinium carboxamide moiety are simultaneous reactivators of acetylcholinesterase and butyrylcholinesterase inhibited by nerve agent surrogates” (2021):

Assays:
[1] = molecular target: hrBChE inhibited by NEMP (Homo sapiens, UniProt P06276); assay: Reactivation screening of NEMP-inhibited hrBChE; conditions: 15 min
[2] = molecular target: hrBChE inhibited by NIMP (Homo sapiens, UniProt P06276); assay: Reactivation screening of NIMP-inhibited hrBChE; conditions: 15 min
[3] = molecular target: hrBChE inhibited by NEDPA (Homo sapiens, UniProt P06276); assay: Reactivation screening of NEDPA-inhibited hrBChE; conditions: 15 min
[4] = molecular target: NIMP-hrBChE (Homo sapiens, UniProt P06276); assay: Reactivation kinetics of NIMP-hrBChE

Row | Compound | hrBChE reactivation (%) NEMP ± SD ([1]; oxime 10 µM) [%] | hrBChE reactivation (%) NEMP ± SD ([1]; oxime 100 µM) [%] | hrBChE reactivation (%) NIMP ± SD ([2]; oxime 10 µM) [%] | hrBChE reactivation (%) NIMP ± SD ([2]; oxime 100 µM) [%] | hrBChE reactivation (%) NEDPA ± SD ([3]; oxime 100 µM) [%] | kr2 (second-order reactivation rate constant, kr2=kr/KD) [4] [mM^–1 min^–1] | kr (first-order reactivation rate constant) [4] [min^–1] | hrBChE reactivation (%) NEDPA ± SD ([3]; oxime 10 µM) [%]
1 | NC(=O)c1cccc2c1ccc[n+]2CCCCC[n+]1ccccc1C=NO.[Br-].[Br-] | 5.0 ± 0.2 | 5.8 ± 0.9 | 3.7 ± 0.3 | 2.8 ± 0.6 | – | – | – | –
2 | NC(=O)c1ccc2ccc[n+](CCCCC[n+]3ccccc3C=NO)c2c1.[Br-].[Br-] | 0.8 ± 0.4 | 3.5 ± 0.9 | 3.5 ± 0.2 | 11.8 ± 0.6 | – | – | – | –
3 | NC(=O)c1cc[n+](CCCCC[n+]2ccccc2C=NO)c2ccccc12.[Br-].[Br-] | 23.4 ± 1.2 | 26.5 ± 2.5 | 24.7 ± 0.5 | 33.3 ± 0.6 | 9.5 ± 0.1 | 13.27 | 0.170 | –
4 | NC(=O)c1ccc2c(ccc[n+]2CCCCC[n+]2ccccc2C=NO)c1.[Br-].[Br-] | – | 22.2 ± 0.5 | 22.3 ± 0.4 | 23.9 ± 0.1 | 0.5 ± 0.1 | 8.29 | 0.044 | –
5 | NC(=O)c1cc2ccccc2[n+](CCCCC[n+]2ccccc2C=NO)c1.[Br-].[Br-] | 8.4 ± 0.7 | 9.5 ± 0.2 | 12.0 ± 1.1 | 13.6 ± 2.2 | 6.3 ± 0.9 | – | – | 2.8 ± 1.0
